According to paper PMC9969397, “Rhenium(V) Complexes as Cysteine-Targeting Coordinate Covalent Warheads” (Journal of Medicinal Chemistry, 2023):

Experiment: Aqueous solubility test by dynamic light scattering
Assay type: physicochemical
Conditions: 200 μM, 2% DMSO in phosphate-buffered saline
Experimental: The aqueous solubility of the metal complexes was assessed by dynamic light scattering. The metal complexes were dissolved in DMSO at a concentration of 10 mM. The stock solutions were diluted with phosphate-buffered saline (PBS) buffer to a dilution of 2% DMSO and a compound concentration of 200 μM. The resulting solutions were analyzed by dynamic light scattering (DLS) using a Malvern Instruments Zetasizer Nano apparatus. […] Zinc oxide, which readily precipitates in an aqueous solution, was used as a positive control.

## ReO(2,2′-thiodiethanethiol)(chloride) [Compound 1]
  aqueous solubility (dynamic light scattering): No aggregation or particle formation was observed
